Reference: ChEMBL document CHEMBL5214961, “Novel Allosteric Inhibitor-Derived AKT Proteolysis Targeting Chimeras (PROTACs) Enable Potent and Selective AKT Degradation in KRAS/BRAF Mutant Cells” (J Med Chem, 2022)

Tested on: SW-620
Assay: Antiproliferative activity against human SW620 cells harboring KRAS mutant assessed as inhibition of cell growth incubated for 5 days by IncuCyte live-cell imaging analysis
Type: functional, cell-based
Conditions: SW-620, 120 h, time 5 day

Nc1ncccc1-c1nc2ccc(-c3ccccc3)nc2n1-c1ccc(C2(N)CCC2)cc1 [MIRANSERTIB] gave a GI50 of 5.2 µM.
